Assay: ^111In biodistribution in normal mice after ^111In-trastuzumab-1.8 followed by 2.10 or vehicle
Format: in vivo
Conditions: ^111In-trastuzumab-1.8 followed by 2.10 24 h post-mAb; euthanized 24 h later; SD, n = 4

O=C(CCCC(=O)Nc1cnccc1-c1nnc(-c2ccncc2NC(=O)CCCC(=O)NCCOCCOCCOCCOCCOCCOCCOCCOCCOCCO)nn1)NCCOCCOCCOCCOCCOCCOCCOCCOCCOCCO [Compound 2.10, N^1,N^1′-(4,4′-(1,2,4,5-Tetrazine-3,6-diyl)bis(pyridine-4,3-diyl))bis(N^5-(29-hydroxy-3,6,9,12,15,18,21,24,27-nonaoxanonacosyl)glutaramide)]
^111In biodistribution, Lung: 2.13 ± 0.41 % injected dose per gram

— US20220331458A1, “AGENTS FOR CLEAVING LABELS FROM BIOMOLECULES IN VIVO” (TAGWORKS PHARMACEUTICALS B.V., priority 2019, published 2022)
